According to US20070178439A1, “Control of es cell self renewal and lineage specification, and medium therefor” (priority 2003, published 2007):

System: ES cells
Experiment: ES cell self-renewal versus differentiation in serum-free N2B27 adherent culture with passaging
Type: cell-based, mouse
Conditions: N2B27, in the presence of LIF
Description: ES cells were maintained without feeder cells. For serum-free culture, ES cells were plated onto gelatin-coated plates in N2B27 medium (Ying and Smith, 2003) supplemented with 10 ng/ml LIF (Sigma) and 10 ng/ml BMP4 or 200 ng/ml GDF6 (R&D Systems). Cells were passaged every 2-4 days using either enzyme-free Cell Dissociation Buffer (Invitrogen) or 0.025% trypsin/1% chicken serum. Dissociated cells were harvested in N2B27 and pelleted. Supernatant was aspirated and the cell pellet resuspended in N2B27 and replated directly. For single cell cloning, a finely drawn Pasteur pipette pre-loaded with N2B27 was used to pick individual cells into 10 μl drops. Drops were then singly transferred to 96-well plates pre-loaded with 150 μl N2B27 per well with LIF or LIF plus BMP4. After 8 days, ES cell colonies were identified and passaged. To produce chimaeras, ES cells were injected into C57Bl/6 blastocysts. Germline transmission was tested by mating male chimaeras with C57Bl/6 females.

B1: BMP2: BMP receptor ligand used in place of BMP4 with LIF (protein, UniProt P12643 283-396, looked up)
Bone morphogenetic protein 2: QAKHKQRKRLKSSCKRHPLYVDFSDVGWNDWIVAPPGYHAFYCHGECPFPLADHLNSTNHAIVQTLVNSVNSKIPKACCVPTELSAISMLYLDENEKVVLKNYQDMVVEGCGCR
- ES cell self-renewal with TGF-β superfamily ligand or other factor in place of BMP4: enhanced self-renewal
